Data published in ChEMBL document CHEMBL1144610, “High-affinity carbamate analogues of morphinan at opioid receptors” (Bioorg Med Chem Lett, 2007).

Protein sequences, listed by entry. Tags and fused reporters are not part of them. Lines headed by an entry give the natural chain unless they say otherwise; changes in a name come on top.
UniProt P41145: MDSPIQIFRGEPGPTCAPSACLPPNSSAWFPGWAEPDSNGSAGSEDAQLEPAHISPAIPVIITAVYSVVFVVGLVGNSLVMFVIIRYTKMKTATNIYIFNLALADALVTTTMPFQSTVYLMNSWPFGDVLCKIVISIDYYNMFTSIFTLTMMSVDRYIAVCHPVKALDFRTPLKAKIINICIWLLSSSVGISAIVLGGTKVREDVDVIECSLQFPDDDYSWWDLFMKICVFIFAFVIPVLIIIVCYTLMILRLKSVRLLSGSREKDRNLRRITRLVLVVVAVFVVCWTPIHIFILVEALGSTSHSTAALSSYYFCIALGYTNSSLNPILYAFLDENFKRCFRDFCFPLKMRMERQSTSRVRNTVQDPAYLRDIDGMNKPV
UniProt P41143, whole entry, looked up: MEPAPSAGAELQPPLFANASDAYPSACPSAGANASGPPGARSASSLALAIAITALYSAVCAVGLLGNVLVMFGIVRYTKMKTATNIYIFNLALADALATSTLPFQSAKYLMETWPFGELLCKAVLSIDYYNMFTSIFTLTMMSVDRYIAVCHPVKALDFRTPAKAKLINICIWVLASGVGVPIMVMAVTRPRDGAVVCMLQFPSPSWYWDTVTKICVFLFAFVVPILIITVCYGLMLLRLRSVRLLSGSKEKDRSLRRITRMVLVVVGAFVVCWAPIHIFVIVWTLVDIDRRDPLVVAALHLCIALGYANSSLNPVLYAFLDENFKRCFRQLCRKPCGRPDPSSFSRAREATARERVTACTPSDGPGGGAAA
UniProt P35372, whole entry, looked up: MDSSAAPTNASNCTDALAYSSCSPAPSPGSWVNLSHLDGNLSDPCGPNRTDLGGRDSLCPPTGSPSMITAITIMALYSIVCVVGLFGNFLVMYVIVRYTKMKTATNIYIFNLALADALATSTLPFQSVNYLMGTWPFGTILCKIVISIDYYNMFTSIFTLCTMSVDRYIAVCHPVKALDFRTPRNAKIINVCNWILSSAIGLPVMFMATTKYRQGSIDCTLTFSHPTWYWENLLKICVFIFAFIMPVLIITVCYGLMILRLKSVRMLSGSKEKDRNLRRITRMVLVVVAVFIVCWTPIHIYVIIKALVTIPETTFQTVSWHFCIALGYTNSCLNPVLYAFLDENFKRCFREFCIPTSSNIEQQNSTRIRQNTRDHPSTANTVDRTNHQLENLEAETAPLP

Assays:
[1] = target: Opioid receptors; delta & kappa (Homo sapiens) (UniProt P41145+P41143); assay: Selectivity for kappa opioid receptor over delta opioid receptor; type: protein assay
[2] = target: Opioid receptors; mu & kappa (Homo sapiens) (UniProt P41145+P35372); assay: Selectivity for kappa opioid receptor over mu opioid receptor expressed in CHO cells; type: cell-based

Structure (SMILES) | Ratio Ki [1] | Ratio Ki [2]
CN1CC[C@]23CCCC[C@H]2[C@H]1Cc1ccc(O)cc13 | 2 | 0.09
Oc1ccc2c(c1)[C@@]13CCCC[C@H]1[C@@H](C2)N(CC1CCC1)CC3 [BUTORPHAN] | 70 | 3
